We go through 3 compounds from patent US11345681B1, “Inhibitors of fibroblast growth factor receptor kinases” (Kinnate Biopharma Inc., priority 2020, dated 2022).

Protein sequences, listed by entry. Tags and fused reporters are not part of them. Residues count along the entry.
UniProt P21802, 22-821: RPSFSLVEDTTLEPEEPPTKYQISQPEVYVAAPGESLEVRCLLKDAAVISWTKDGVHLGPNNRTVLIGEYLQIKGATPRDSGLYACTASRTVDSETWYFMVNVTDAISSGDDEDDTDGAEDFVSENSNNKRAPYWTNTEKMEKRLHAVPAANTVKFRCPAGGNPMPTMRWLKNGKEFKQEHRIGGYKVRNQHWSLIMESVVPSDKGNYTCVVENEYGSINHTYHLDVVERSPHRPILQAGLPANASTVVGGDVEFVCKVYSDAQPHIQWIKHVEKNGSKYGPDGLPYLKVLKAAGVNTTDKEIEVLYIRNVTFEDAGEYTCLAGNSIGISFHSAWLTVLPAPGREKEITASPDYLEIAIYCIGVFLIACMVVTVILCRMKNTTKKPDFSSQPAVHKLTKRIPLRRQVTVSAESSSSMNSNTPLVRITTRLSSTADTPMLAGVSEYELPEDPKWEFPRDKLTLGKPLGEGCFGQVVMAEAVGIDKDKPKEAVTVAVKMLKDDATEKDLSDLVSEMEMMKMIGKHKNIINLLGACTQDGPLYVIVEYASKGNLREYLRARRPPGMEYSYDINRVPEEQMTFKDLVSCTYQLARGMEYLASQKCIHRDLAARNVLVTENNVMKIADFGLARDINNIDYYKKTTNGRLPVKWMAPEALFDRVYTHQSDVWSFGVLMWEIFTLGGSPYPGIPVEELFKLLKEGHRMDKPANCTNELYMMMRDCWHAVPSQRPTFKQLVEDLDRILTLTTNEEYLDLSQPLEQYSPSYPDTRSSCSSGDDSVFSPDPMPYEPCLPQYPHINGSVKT

This assay addresses Wild type FGFR2 (Homo sapiens (Human), UniProt P21802). Briefly: FGFR2 kinase assay (fluorescence-based microfluidic mobility shift assay). In kind it is biochemical.

Each structure is given as a SMILES string. Where two headings read alike, the source gives them in different places. A value given as a limit tells only on which side of the number the result lay.

`C=CC(=O)N1C[C@@H](n2nc(C#Cc3cc4ncn([C@@H]5CC5(F)F)c4cc3F)c(C(N)=O)c2NC)C[C@@H]1COC` (single isomer, unassigned) [Example 272]: the IC50 is less than 0.1 µM.

For the compound `C=CC(=O)N1C[C@@H](n2nc(C#Cc3ccc4c(c3)nc(N)n4C)c(C(N)=O)c2NC)C[C@@H]1COC` [Example 49, 3-[2-(2-Amino-1-methyl-1,3-benzodiazol-5-yl)ethynyl]-1-[(3S,5R)-5-(methoxymethyl)-1-(prop-2-enoyl)pyrrolidin-3-yl]-5-(methylamino)pyrazole-4-carboxamide], the IC50 (wild type FGFR2 0.06 nM, 100 μM ATP, 80 minutes at room temperature, class symbols) is no more than 0.1 µM.

Turning to `C=CC(=O)N1C[C@@H](n2nc(C#Cc3cc4ncc(C)c(C)c4cc3F)c(C(N)=O)c2NC)C[C@@H]1COC` [Example 282, 1-((3S,5R)-1-Acryloyl-5-(methoxymethyl)pyrrolidin-3-yl)-3-((6-fluoro-3,4-dimethylquinolin-7-yl)ethynyl)-5-(methylamino)-1H-pyrazole-4-carboxamide], the IC50 is less than 0.1 µM.
